## Permeability data for macrocyclic peptides

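Lipid, pH, incubation time, direction and concentration are not recorded in the data file. Other peptides of the study may be missing here. Entries at the database's floor value (log10 P of -10) are not listed.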

PAMPA measures passive passage through an artificial lipid membrane. P is given in units of 10^-6 cm/s (from log10 values with two decimals); larger means faster passage.

structure (SMILES)	PAMPA (10^-6 cm/s)
CC(C)C[C@H]1C(=O)N2CCC[C@@H]2C(=O)N(C)[C@@H](CC(C)C)C(=O)N[C@@H](Cc2ccccc2)C(=O)N[C@H](C)C(=O)N(Cc2ccccc2)CC(=O)N1C	5.4
CC(C)C[C@@H]1NC(=O)[C@@H](CC(C)C)NC(=O)[C@H](C)N(C)C(=O)[C@H](Cc2ccccc2)NC(=O)[C@@H](CC(C)C)NC(=O)[C@H]2CCCN2C1=O	7.1
CC(C)C[C@@H]1NC(=O)[C@@H](CC(C)C)NC(=O)C[C@H](Cc2ccccc2)NC(=O)[C@@H]2CCCN2C(=O)[C@H](Cc2ccccc2)NC(=O)CN(Cc2ccccc2)C(=O)[C@@H]2CCCN2C1=O	1
CC(C)C[C@@H]1C(=O)N2CCC[C@@H]2C(=O)N[C@H](CC(C)C)C(=O)N[C@@H](Cc2ccccc2)C(=O)N2CCC[C@@H]2C(=O)N(C)[C@H](C)C(=O)N(Cc2ccccc2)CC(=O)N1C	0.55
CC(C)C[C@@H]1NC(=O)CN(Cc2ccccc2)C(=O)[C@H](C)N(C)C(=O)[C@H]2CCCN2C(=O)[C@H](Cc2ccccc2)NC(=O)[C@@H](CC(C)C)N(C)C(=O)[C@@H]2CCCN2C1=O	3
CCCN1CC(=O)N(C)[C@H](CC(C)C)C(=O)N[C@@H](CC(C)C)C(=O)N2CCC[C@H]2C(=O)N(C)[C@H](CC(C)C)C(=O)N[C@@H](Cc2ccccc2)C(=O)N2CCC[C@@H]2C1=O	8.5
CC(C)C[C@@H]1NC(=O)[C@H](CC(C)C)N(C)C(=O)[C@@H](C)N(C)C(=O)[C@H](Cc2ccccc2)NC(=O)CN(Cc2ccccc2)C(=O)[C@@H]2CCCN2C1=O	12
CC(C)C[C@@H]1NC(=O)[C@H](C)N(C)C(=O)[C@H]2CCCN2C(=O)[C@H](Cc2ccccc2)NC(=O)[C@H](CC(C)C)N(C)C(=O)[C@H]2CCCN2C(=O)[C@H](CC(C)C)N(C)C1=O	11
CC(C)C[C@@H]1NC(=O)[C@@H](C)NC(=O)[C@H]2CCCN2C(=O)[C@H](Cc2ccccc2)NC(=O)[C@@H](CC(C)C)NC(=O)[C@H]2CCCN2C(=O)[C@@H](CC(C)C)NC1=O	0.98
CC(C)C[C@@H]1NC(=O)C[C@H](Cc2ccccc2)NC(=O)[C@H](Cc2ccccc2)NC(=O)[C@@H](CC(C)C)N(C)C(=O)[C@@H]2CCCN2C(=O)[C@H](CC(C)C)NC1=O	2.9
CC(C)C[C@@H]1NC(=O)[C@@H]2CCCN2C(=O)[C@H](CC(C)C)N(C)C(=O)[C@@H](CC(C)C)NC(=O)[C@H](C)N(C)C(=O)[C@H](Cc2ccccc2)NC1=O	1.7
CC(C)C[C@@H]1NC(=O)C[C@H](Cc2ccccc2)NC(=O)[C@H]2CCCN2C(=O)[C@H](Cc2ccccc2)NC(=O)[C@@H](CC(C)C)NC(=O)[C@@H]2CCCN2C(=O)[C@@H](CC(C)C)N(C)C1=O	3
CC(C)C[C@@H]1C(=O)N(Cc2ccccc2)CC(=O)N2CCC[C@@H]2C(=O)N(Cc2ccccc2)CC(=O)N[C@@H](Cc2ccccc2)C(=O)N2CCC[C@H]2C(=O)N(C)[C@H](C)C(=O)N1C	0.55
CC(C)C[C@@H]1NC(=O)[C@H](C)NC(=O)[C@H]2CCCN2C(=O)[C@H](Cc2ccccc2)NC(=O)[C@H](CC(C)C)N(C)C(=O)[C@H]2CCCN2C(=O)[C@@H](CC(C)C)N(C)C1=O	0.58
CC(C)C[C@@H]1NC(=O)[C@H](C)N(C)C(=O)[C@@H]2CCCN2C(=O)[C@H](Cc2ccccc2)NC(=O)[C@@H](CC(C)C)N(C)C(=O)[C@@H]2CCCN2C(=O)[C@H](CC(C)C)NC1=O	1.2
CCCN1CC(=O)N(C)[C@H](CC(C)C)C(=O)N[C@@H](CC(C)C)C(=O)N2CCC[C@@H]2C(=O)N(C)[C@H](CC(C)C)C(=O)N[C@@H](Cc2ccccc2)C1=O	11
CC(C)C[C@@H]1C(=O)N2CCC[C@H]2C(=O)N(C)[C@H](CC(C)C)C(=O)N[C@@H](Cc2ccccc2)C(=O)N2CCC[C@H]2C(=O)N(C)[C@@H](C)C(=O)N(C)[C@@H](CC(C)C)C(=O)N1C	0.72
CC(C)C[C@@H]1NC(=O)[C@@H](CC(C)C)NC(=O)[C@@H](C)NC(=O)[C@H]2CCCN2C(=O)[C@H](Cc2ccccc2)NC(=O)[C@@H](CC(C)C)NC(=O)[C@@H]2CCCN2C1=O	0.25
CC(C)C[C@H]1NC(=O)[C@H]2CCCN2C(=O)CN(Cc2ccccc2)C(=O)[C@@H](CC(C)C)NC(=O)[C@H](C)N(C)C(=O)[C@H](Cc2ccccc2)NC1=O	6.3
CC(C)C[C@H]1NC(=O)[C@H](C)NC(=O)[C@@H]2CCCN2C(=O)[C@H](Cc2ccccc2)NC(=O)[C@H](CC(C)C)N(C)C(=O)[C@@H]2CCCN2C(=O)CN(Cc2ccccc2)C1=O	3
CC(C)C[C@@H]1NC(=O)[C@@H](C)N(C)C(=O)[C@H]2CCCN2C(=O)[C@H](Cc2ccccc2)NC(=O)[C@H](CC(C)C)N(C)C(=O)[C@@H]2CCCN2C(=O)[C@@H](CC(C)C)NC1=O	4.2
CCCN1CC(=O)N[C@H](CC(C)C)C(=O)N[C@@H](CC(C)C)C(=O)N2CCC[C@@H]2C(=O)N[C@@H](CC(C)C)C(=O)N[C@@H](Cc2ccccc2)C1=O	1
CC(C)C[C@@H]1NC(=O)[C@@H](C)NC(=O)[C@@H]2CCCN2C(=O)[C@H](Cc2ccccc2)NC(=O)[C@H](CC(C)C)N(C)C(=O)[C@H]2CCCN2C(=O)[C@@H](CC(C)C)N(C)C1=O	0.69

3 of these entries, quoted again:

| structure (SMILES) | PAMPA (10^-6 cm/s) |
|---|---|
| CC(C)C[C@H]1NC(=O)[C@H]2CCCN2C(=O)CN(Cc2ccccc2)C(=O)[C@@H](CC(C)C)NC(=O)[C@H](C)N(C)C(=O)[C@H](Cc2ccccc2)NC1=O | 6.3 |
| CCCN1CC(=O)N[C@H](CC(C)C)C(=O)N[C@@H](CC(C)C)C(=O)N2CCC[C@@H]2C(=O)N[C@@H](CC(C)C)C(=O)N[C@@H](Cc2ccccc2)C1=O | 1 |
| CC(C)C[C@@H]1NC(=O)[C@H](C)N(C)C(=O)[C@H]2CCCN2C(=O)[C@H](Cc2ccccc2)NC(=O)[C@H](CC(C)C)N(C)C(=O)[C@H]2CCCN2C(=O)[C@H](CC(C)C)N(C)C1=O | 11 |

Collected by the curators of CycPeptMPDB (Li et al. 2023) from Townsend et al. 2020, doi:10.26434/chemrxiv.13335941.v1.